## scFv variants of Ab-14 (heavy chain) against a SARS-CoV-2 spike peptide

Values reported by Li et al. 2023, doi:10.1038/s41467-023-39022-2 (FLAb copy).

Target peptide (SARS-CoV-2 spike, HR2 region): PDVDLGDISGINAS

Parent: Ab-14, a human scFv built as VH, a (GGGGS)3 linker, VL. Only the CDRs of the heavy chain vary.
VH: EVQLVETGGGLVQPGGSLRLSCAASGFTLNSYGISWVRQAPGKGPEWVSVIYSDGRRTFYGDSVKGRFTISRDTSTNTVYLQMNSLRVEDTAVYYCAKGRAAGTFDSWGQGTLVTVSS
VL: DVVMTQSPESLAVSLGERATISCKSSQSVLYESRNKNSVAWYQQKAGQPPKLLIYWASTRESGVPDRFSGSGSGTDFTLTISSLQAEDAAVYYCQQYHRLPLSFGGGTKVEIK

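The starting antibody came from a phage panning campaign against this peptide. Designed CDR sequences, proposed from the first random library and measured here. Several design methods are mixed in this list. Affinity was read by AlphaSeq, a pooled yeast mating assay with surface-displayed partners. Binding brings cells together so that they mate, and sequencing counts the barcode pairs among the diploids. Read counts were normalised to the haploid input and turned into Kd by a linear fit to BCL2-family pairs of known affinity, for each replicate. The assay was run in six technical replicates.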

The parent's heavy chain CDRs are GFTLNSYGIS, VIYSDGRRTFYGDSVK, GRAAGTFDS; each variant's own CDRs replace them letter for letter.
This list holds designs with more than six substitutions.
Values are apparent Kd, the geometric mean of the replicates that gave a signal; lower means stronger binding.
An entry "no signal" has no value in the source: the pair was not observed among the diploids in any replicate. This suggests poor binding but is not conclusive.
Three control strains display no target. For all heavy chain designs, 1% of the pairings with them gave a signal, with a median of 120 nM and one signal in twenty below 7.0 nM, so weak values seen in few replicates may be background. Also given: how often the same scFv was detected with the empty control strains.

- GFDLNEYGIS | VIYADGVRTAYADSVK | GNNAGTFDQ: 400 pM (6 of 6 replicates; controls 0 of 18)
- GKSLDEYGIS | VIYADGLRSVYANSVK | GQFDDTMDL: 2.3 nM (6 of 6 replicates; controls 0 of 18)
- GFNLDDMGIS | VIYADGERTAYSDSVK | GHEGYIMNV: no signal (0 of 6 replicates; controls 0 of 18)
- GFDLNEYGIS | VIYADGMRTAYADTVK | GNVAGTFDL: 560 pM (6 of 6 replicates; controls 3 of 18)
- GFALNEYGIS | VIYADGSRSAYINSVK | GVNNIDVNV: 5.8 nM (6 of 6 replicates; controls 0 of 18)
- GFDLDEYGIS | VIYADGRRTFYADSVK | GEAAGTFDM: 210 pM (6 of 6 replicates; controls 0 of 18)
- GMDLSEYGIS | VIYADGMRTYASDSVK | GEHGGMLLY: no signal (0 of 6 replicates; controls 0 of 18)
- GFDLNEYGIS | VIYADGRRTAYSDSVK | GEAGGTFDL: 53 pM (6 of 6 replicates; controls 0 of 18)
- GMNIDEYGIS | VIYADGLRYHYANSVK | GEMAGFFMV: no signal (0 of 6 replicates; controls 0 of 18)
- GFDLNEYGIS | VIYADGMRTQYTDSVK | GNEAGTFDS: no signal (0 of 6 replicates; controls 1 of 18)
- GFSLDEFGIS | VIYADGKRTFYTDNVK | GINVVALVI: no signal (0 of 6 replicates; controls 0 of 18)
- GFDINEYGIS | VIYADGMRTFYADSVK | GNQAGTFDL: 2.2 nM (6 of 6 replicates; controls 0 of 18)
- GFDLEDYGIS | VIYADGRRTFYADSVK | GENAGTFDL: 530 pM (6 of 6 replicates; controls 0 of 18)
- GFDLNEYGIS | VIYADGVRTFYTDSVK | GETAGTFDV: 250 pM (6 of 6 replicates; controls 0 of 18)
- GFNLDEYGIS | VIYADGQRTQYANDVK | GHYAGSMLS: no signal (0 of 6 replicates; controls 0 of 18)
- GMDLEEYGIS | VIYADGMRTYASDSVK | GDQGGNLLY: 950 nM (1 of 6 replicates; controls 1 of 18)
- GFDLNEYGIS | VIYADGMRTAYADSVK | GEVAGTFDF: 220 pM (5 of 6 replicates; controls 0 of 18)
- GMNLDEYGIS | VIYADGVRCEYANTVK | GELAGFFML: 12 nM (6 of 6 replicates; controls 0 of 18)
- GMSLDEYGIS | VIYADGMRTFYANTVK | GEDGVFYDQ: no signal (0 of 6 replicates; controls 0 of 18)
- GFDLEEYGIS | VIYADGKRTAYADSVK | GNVAGTFDQ: 720 pM (6 of 6 replicates; controls 0 of 18)
- GFSLDEYGVS | VIYADGLRTQYVNDVK | GLESFAFKM: 60 nM (1 of 6 replicates; controls 0 of 18)
- GFELQEYGIS | VIYADGMRTAYSDNVK | GDARGIFHV: 100 nM (1 of 6 replicates; controls 0 of 18)
- GFDLNEYGIS | VIYADGQRTAYADSVK | GGNAGTFDL: 500 pM (6 of 6 replicates; controls 0 of 18)
- GFSINEYGIS | VIYADGRRTFYGNAVK | GMAAVTFDQ: no signal (0 of 6 replicates; controls 0 of 18)
- GFDLDEYGIS | VIYADGRRTFYTDSVK | GTNAGTFDV: 2.1 nM (6 of 6 replicates; controls 0 of 18)
- GFNLDEFGIS | VIYADGMRTAYSQDVK | GQHVEFTVG: no signal (0 of 6 replicates; controls 0 of 18)
- GFDLNEYGIS | VIYADGMRTQYIDSVK | GNAAGTFDT: 780 pM (6 of 6 replicates; controls 0 of 18)
- GFGLEEYGIS | VIYADGMRTFYAEKVK | GNFDLQEGY: no signal (0 of 6 replicates; controls 0 of 18)
- GFDLQEYGVS | VIYADGRRASYASKFK | GNHSGYFDK: no signal (0 of 6 replicates; controls 0 of 18)
- GFDIEEYGVS | VIYADGQRAFYTDSVK | GKGAGIALE: 4.7 µM (1 of 6 replicates; controls 0 of 18)
- GFDLNEYGIS | VIYADGMRTSYIDSVK | GNAAGTFDV: 750 pM (6 of 6 replicates; controls 0 of 18)
- GFDLDEYGIS | VIYADGRRTFYADSVK | GENAGTFDA: 430 pM (6 of 6 replicates; controls 0 of 18)
- GFDLNEYGIS | VIYADGKRTAYADSVK | GNVAGTFDQ: 260 pM (6 of 6 replicates; controls 0 of 18)
- GEDLMEYGIS | VIYADGERKSYVESVK | GGVSVTFST: no signal (0 of 6 replicates; controls 0 of 18)
- EFDLNNYGIS | VIYADGLRTAYETSFK | GINAGTFTS: 85 nM (2 of 6 replicates; controls 1 of 18)
- GFDLNEYGIS | VIYADGQRTAYADSVK | GGNAGTFDQ: 560 pM (6 of 6 replicates; controls 0 of 18)
- GADLNEMGIS | VIYADGDRKAYQDDVK | GDVSGDFDE: no signal (0 of 6 replicates; controls 0 of 18)
- GFDLNEYGIS | VIYADGMRTAYSDDVK | GEVAGTFDL: 280 pM (6 of 6 replicates; controls 1 of 18)
- GFDLNEYGIS | VIYADGRRTAYIDSVK | GEAAGTFDL: 240 pM (6 of 6 replicates; controls 0 of 18)
- GKSLEEYGIS | VIYADGQRTAYAETVK | GNNGGVFIY: 8.8 nM (1 of 6 replicates; controls 0 of 18)
- GFDLDEYGIS | VIYADGMRTAYVDSVK | GNVAGTFDI: 450 pM (6 of 6 replicates; controls 0 of 18)
- GQDLQEYGVS | VIYADGMRTAYADSFK | GQSLGNIVQ: 500 nM (1 of 6 replicates; controls 0 of 18)

Repeated from above, the 3 best binders with a signal in all replicates:

{"CDR-H1": "GFDLNEYGIS", "CDR-H2": "VIYADGRRTAYSDSVK", "CDR-H3": "GEAGGTFDL", "apparent Kd": "53 pM", "detected": "6 of 6", "control signals": "0 of 18"}
{"CDR-H1": "GFDLDEYGIS", "CDR-H2": "VIYADGRRTFYADSVK", "CDR-H3": "GEAAGTFDM", "apparent Kd": "210 pM", "detected": "6 of 6", "control signals": "0 of 18"}
{"CDR-H1": "GFDLNEYGIS", "CDR-H2": "VIYADGRRTAYIDSVK", "CDR-H3": "GEAAGTFDL", "apparent Kd": "240 pM", "detected": "6 of 6", "control signals": "0 of 18"}

Of ten entries with the parent sequence, four were seen in most replicates (averages 2.2 nM to 240 nM), three in one and three in none, so single entries are noisy.
In the paper, a design with two or fewer of six values counts as a poor binder.
Values of this round are not directly comparable with the first-round values of the same sequences.